Measured values taken from patent US10238609B2, “Cyanide antidote compositions and methods of use” (dated 2019).

The chains behind the UniProt entries cited, without tags or fusion partners. Residues count along the entry.
UniProt P00586, 2-297 limits assumed: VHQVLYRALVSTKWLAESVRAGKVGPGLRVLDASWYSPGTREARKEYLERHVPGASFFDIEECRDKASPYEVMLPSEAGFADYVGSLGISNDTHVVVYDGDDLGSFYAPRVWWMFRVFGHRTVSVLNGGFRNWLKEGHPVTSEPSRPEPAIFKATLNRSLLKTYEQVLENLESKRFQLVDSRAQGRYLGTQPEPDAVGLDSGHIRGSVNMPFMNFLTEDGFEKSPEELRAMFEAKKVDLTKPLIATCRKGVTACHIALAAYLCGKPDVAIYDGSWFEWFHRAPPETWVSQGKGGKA

Columns and labels:
[1] = In vitro conversion of potassium cyanide (KCN) to SCN by sulfur analogs in the absence of rhodanese; conditions: 0.2 mL of 0.125 mM sulfur analog, 250 mM KCN, 5 minute incubation, colour at 464 nm
rhodanese = rhodanese (Bos taurus, UniProt P00586); assay: In vitro conversion of potassium cyanide (KCN) to SCN by sulfur analogs in the presence of rhodanese; conditions: for rate of conversion of potassium cyanide to SCN, Rhodanese present: Rhodanese present (0.595 Units), 0.2 mL of 0.125 mM sulfur analog, 250 mM KCN, 5 minute incubation, colour at 464 nm

SMILES	rate of conversion of potassium cyanide to SCN, No Rhodanese [1]	rate of conversion of potassium cyanide to SCN, Rhodanese present (rhodanese)	factor faster conversion of cyanide to SCN as compared to sodium thiosulfate (rhodanese; in the presence and absence of rhodanese, relative to sodium thiosulfate)
Cc1ccc(S(=O)(=O)SSSS(=O)(=O)c2ccc(C)cc2)cc1	0.158 mM of SCN/min	0.16 mM of SCN/min	≥ 10 times
O=S(O)(O)=S	0.0029 mM of SCN/min	0.005 mM of SCN/min	–
